# logP (octanol/water) values, as collected for the OPERA models

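These are experimental values that the OPERA curators gathered from public databases to train and test their QSAR models. One number stands for a compound and property, with no spread given. How each value was measured is not recorded, so precision varies. A value may pool stereoisomers or salt forms, and the file does not say which form was measured. Some upstream entries may be estimates or bounds without being marked so.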

The octanol-water partition coefficient is given as log10; larger values mean a more lipophilic compound.
"n/a" marks a cell with nothing listed here.

structure (SMILES)	name	logP (octanol/water)
C=CC(=O)NCC(OC)OC	N-(2,2-Dimethoxyethyl)-2-propenamide	-0.3
Cc1c(-c2ccccc2)oc2c(C(=O)OCCN3CCCCC3)cccc2c1=O	Flavoxate	4.4
CC(C)C(NC(N)=O)NC(N)=O	Isobutylidene diurea	-0.902
CN1CCCN(C)C1=O	2(1H)-Pyrimidinone, tetrahydro-1,3-dimethyl-	0.05
COc1ccccc1N1CCN(CCNC(=O)c2ccc[nH]2)CC1	n/a	1.6
CC1(C)CC(NCCC#N)CC(C)(CNCCC#N)C1 (configuration not stated)	n/a	1.9
C1CCOCOC1	1,3-Dioxepane	0.6
Oc1cc(F)c(F)c(F)c1	3,4,5-Trifluorophenol	1.85
CC1(C)S[C@@H]2[C@H](N=C(O)CCOc3ccccc3)C(=O)N2[C@H]1C(=O)O	n/a	2.28
C=COCCCC	Butyl vinyl ether	3.025
Cc1ccc(S(=O)(=O)N(C)Cc2ccc(Nc3cc(S(=O)(=O)[O-])c(N)c4c3C(=O)c3ccccc3C4=O)cc2)cc1.[Na+]	n/a	-1
CCCCCCCCC/C=C/C=O	(E)-Dodec-2-en-1-al	4.892
CC(=O)C=CC=C(C)CCC=C(C)C	Pseudoionone	4.1
CC(C)n1c(/C=C/[C@@H](O)C[C@@H](O)CC(=O)OC(C)(C)C)c(-c2ccc(F)cc2)c2ccccc21 (racemic)	n/a	4.8
CN1CCCCC1CCO (configuration not stated)	2-Piperidineethanol, 1-methyl-	0.72
C#CCN(CC)CC	2-Propyn-1-amine, N,N-diethyl-	1.5
O=[N+]([O-])c1cccc2c(/N=N\c3c([O-])ccc4ccccc34)c([O-])cc(S(=O)(=O)[O-])c12.O=[N+]([O-])c1cccc2c(/N=N\c3c([O-])ccc4ccccc34)c([O-])cc(S(=O)(=O)[O-])c12.[Cr+3].[Na+].[Na+].[Na+]	C.I. Acid Black 172	-1.74
Nc1ccc(/N=N/c2ccc(/N=N/c3c(S(=O)(=O)[O-])cc4cc(S(=O)(=O)[O-])c(/N=N/c5ccc(/N=N/c6ccc(N)cc6N)cc5)c(O)c4c3N)cc2)c(N)c1.[Na+].[Na+]	C.I. Direct Black 19, disodium salt	-1.5
Nc1cc(S(=O)(=O)O)cc([N+](=O)[O-])c1O	4-Hydroxy-5-nitrometanilic acid	0.08
Cc1cc(O)c(C(C)C)cc1C1(c2cc(C(C)C)c(O)cc2C)OC(=O)c2ccccc21	3,3-Bis(4-hydroxy-5-isopropyl-o-tolyl)phthalide	3.682
O=C(O)c1c(O)cc(O)cc1O	Benzoic acid, 2,4,6-trihydroxy-	1.62
COB1OB(OC)OB(OC)O1	Trimethoxycyclotriboroxane	-0.93
CCN(CC)c1ccc(N=Nc2c(C#N)cc([N+](=O)[O-])cc2C#N)c(C)c1	n/a	4.7
O=S(=O)([O-])c1ccc2c(/N=N\c3ccc(S(=O)(=O)[O-])c4ccccc34)c(O)c(S(=O)(=O)[O-])cc2c1.[Na+].[Na+].[Na+]	Amaranth	-5.13
CCCCc1ncc(/C=C(\Cc2cccs2)C(=O)O)n1Cc1ccc(C(=O)O)cc1	Eprosartan	3.9
CC(=O)O[C@@]1(C(C)=O)CC[C@@H]2[C@H]3CCC4=CC(=O)CC[C@@]4(C)[C@@H]3CC[C@]21C	Hydroxyprogesterone acetate	3.2
CCCCCCOc1ccc(-c2nc(-c3ccccc3)nc(-c3ccccc3)n2)c(O)c1	2-(4,6-Diphenyl-s-triazin-2-yl)-5-hexyloxyphenol	7.1
Cc1cc(/N=N/c2c(O)c(C(=O)[O-])cc3ccccc23)c(S(=O)(=O)[O-])cc1Cl.[Sr+2]	n/a	1.22
O=C([O-])c1[nH]n(-c2ccc(S(=O)(=O)[O-])cc2)c(=O)c1/N=N/c1ccc(S(=O)(=O)[O-])cc1.[Na+].[Na+].[Na+]	C.I. Acid Yellow 23	-1.572
COc1cccc([C@H](C)N)c1	1-(3-Methoxyphenyl)ethan-1-amine	1.5
CC(C)CCCC(C)CCCC(C)CCCCC(C)CCCC(C)CCCC(C)C (configuration not stated)	Squalane	5.49
C[C@H](N[C@@H]1CCc2[nH]c3ccccc3c2C1)c1ccccc1.Cl	n/a	2.9

From the experimental data distributed with OPERA 2.9.